## Cyclic peptide permeability, from CycPeptMPDB

Source: CycPeptMPDB (Li et al. 2023), which took these values from Townsend et al. 2020, doi:10.26434/chemrxiv.13335941.v1.

PAMPA is the parallel artificial membrane permeability assay, which has no cells and reads passive diffusion. Values are log10 P with P in cm/s, so -5 is more permeable than -7.

{"smiles": "CC(C)C[C@H]1NC(=O)[C@H](CC(C)C)N(C)C(=O)[C@@H](C)N(C)C(=O)[C@H](Cc2ccccc2)NC(=O)CN(Cc2ccccc2)C(=O)[C@@H]2CCCN2C1=O", "PAMPA (log10 cm/s)": "-5.26"}
{"smiles": "CC(C)C[C@@H]1C(=O)N[C@@H](Cc2ccccc2)C(=O)N2CCC[C@@H]2C(=O)N[C@@H](Cc2ccccc2)CC(=O)N[C@H](CC(C)C)C(=O)N[C@@H](Cc2ccccc2)CC(=O)N2CCC[C@H]2C(=O)N1C", "PAMPA (log10 cm/s)": "-5.74"}
{"smiles": "CC(C)C[C@@H]1NC(=O)[C@@H](CC(C)C)NC(=O)C[C@H](Cc2ccccc2)NC(=O)[C@@H]2CCCN2C(=O)[C@H](Cc2ccccc2)NC(=O)[C@H](CC(C)C)N(C)C(=O)[C@H]2CCCN2C1=O", "PAMPA (log10 cm/s)": "-5.56"}
{"smiles": "CC(C)C[C@@H]1NC(=O)[C@@H](C)NC(=O)[C@H]2CCCN2C(=O)[C@H](Cc2ccccc2)NC(=O)[C@H](CC(C)C)NC(=O)[C@@H]2CCCN2C(=O)C[C@H](Cc2ccccc2)NC1=O", "PAMPA (log10 cm/s)": "-6.16"}
{"smiles": "CC(C)C[C@H]1C(=O)N(Cc2ccccc2)CC(=O)N2CCC[C@@H]2C(=O)N(Cc2ccccc2)CC(=O)N[C@@H](Cc2ccccc2)C(=O)N(C)[C@@H](C)C(=O)N1C", "PAMPA (log10 cm/s)": "-5.43"}
{"smiles": "CC(C)C[C@@H]1NC(=O)[C@H](C)NC(=O)[C@H](Cc2ccccc2)NC(=O)[C@H](CC(C)C)N(C)C(=O)[C@H]2CCCN2C(=O)[C@H](CC(C)C)NC1=O", "PAMPA (log10 cm/s)": "-6.04"}
{"smiles": "CC(C)C[C@@H]1C(=O)N[C@@H](Cc2ccccc2)C(=O)N2CCC[C@@H]2C(=O)N(C)[C@@H](C)C(=O)N[C@H](CC(C)C)C(=O)N(Cc2ccccc2)CC(=O)N2CCC[C@@H]2C(=O)N1C", "PAMPA (log10 cm/s)": "-5.39"}
{"smiles": "CC(C)C[C@H]1NC(=O)CN(Cc2ccccc2)C(=O)[C@H](C)N(C)C(=O)[C@@H]2CCCN2C(=O)[C@H](Cc2ccccc2)NC(=O)[C@H](CC(C)C)N(C)C(=O)[C@@H]2CCCN2C1=O", "PAMPA (log10 cm/s)": "-5.17"}
{"smiles": "CC(C)C[C@@H]1NC(=O)[C@@H](C)N(C)C(=O)[C@H]2CCCN2C(=O)[C@H](Cc2ccccc2)NC(=O)CN(Cc2ccccc2)C(=O)[C@@H]2CCCN2C(=O)[C@@H](CC(C)C)NC1=O", "PAMPA (log10 cm/s)": "-5.67"}
{"smiles": "CCCN1CC(=O)N(Cc2ccccc2)CC(=O)N[C@H](CC(C)C)C(=O)N2CCC[C@H]2C(=O)N(C)[C@@H](CC(C)C)C(=O)N[C@@H](Cc2ccccc2)C(=O)N2CCC[C@H]2C1=O", "PAMPA (log10 cm/s)": "-5.40"}
{"smiles": "CC(C)C[C@@H]1NC(=O)C[C@H](Cc2ccccc2)NC(=O)[C@H]2CCCN2C(=O)[C@H](Cc2ccccc2)NC(=O)[C@@H](CC(C)C)NC(=O)[C@@H]2CCCN2C(=O)[C@@H](CC(C)C)NC1=O", "PAMPA (log10 cm/s)": "-5.77"}
{"smiles": "CC(C)C[C@@H]1NC(=O)[C@@H]2CCCN2C(=O)C[C@H](Cc2ccccc2)NC(=O)[C@@H](CC(C)C)NC(=O)[C@H](C)NC(=O)[C@H](Cc2ccccc2)NC1=O", "PAMPA (log10 cm/s)": "-6.60"}
{"smiles": "CC(C)C[C@H]1NC(=O)[C@H]2CCCN2C(=O)[C@@H](CC(C)C)NC(=O)[C@@H](CC(C)C)NC(=O)[C@@H](C)NC(=O)[C@H]2CCCN2C(=O)[C@H](Cc2ccccc2)NC1=O", "PAMPA (log10 cm/s)": "-6.79"}
{"smiles": "CC(C)C[C@H]1NC(=O)[C@@H]2CCCN2C(=O)[C@@H](CC(C)C)NC(=O)[C@H](CC(C)C)N(C)C(=O)[C@@H](C)N(C)C(=O)[C@H](Cc2ccccc2)NC1=O", "PAMPA (log10 cm/s)": "-5.55"}
{"smiles": "CCCN1CC(=O)N(C)[C@@H](CC(C)C)C(=O)N(C)[C@H](CC(C)C)C(=O)N2CCC[C@H]2C(=O)N(C)[C@H](CC(C)C)C(=O)N[C@@H](Cc2ccccc2)C(=O)N2CCC[C@H]2C1=O", "PAMPA (log10 cm/s)": "-4.89"}
{"smiles": "CC(C)C[C@@H]1NC(=O)[C@H]2CCCN2C(=O)CN(Cc2ccccc2)C(=O)[C@@H](CC(C)C)N(C)C(=O)[C@@H](C)N(C)C(=O)[C@H](Cc2ccccc2)NC1=O", "PAMPA (log10 cm/s)": "-5.95"}
{"smiles": "CC(C)C[C@@H]1C(=O)N(C)[C@H](CC(C)C)C(=O)N2CCC[C@H]2C(=O)N(C)[C@H](CC(C)C)C(=O)N[C@@H](Cc2ccccc2)C(=O)N[C@@H](C)C(=O)N1C", "PAMPA (log10 cm/s)": "-5.22"}
{"smiles": "CC(C)C[C@@H]1C(=O)N[C@@H](Cc2ccccc2)C(=O)N2CCC[C@@H]2C(=O)N[C@@H](C)C(=O)N(Cc2ccccc2)CC(=O)N[C@@H](Cc2ccccc2)CC(=O)N2CCC[C@@H]2C(=O)N1C", "PAMPA (log10 cm/s)": "-5.85"}
{"smiles": "CCCN1CC(=O)N(C)[C@H](CC(C)C)C(=O)N[C@@H](CC(C)C)C(=O)N2CCC[C@@H]2C(=O)N(C)[C@@H](CC(C)C)C(=O)N[C@@H](Cc2ccccc2)C(=O)N2CCC[C@H]2C1=O", "PAMPA (log10 cm/s)": "-4.97"}
{"smiles": "CC(C)C[C@@H]1C(=O)N[C@@H](Cc2ccccc2)C(=O)N2CCC[C@H]2C(=O)N(C)[C@H](C)C(=O)N[C@H](CC(C)C)C(=O)N(Cc2ccccc2)CC(=O)N2CCC[C@@H]2C(=O)N1C", "PAMPA (log10 cm/s)": "-5.94"}
{"smiles": "CC(C)C[C@@H]1NC(=O)[C@@H]2CCCN2C(=O)[C@@H](CC(C)C)NC(=O)[C@@H](CC(C)C)N(C)C(=O)C[C@H](Cc2ccccc2)NC(=O)[C@H]2CCCN2C(=O)[C@H](Cc2ccccc2)NC1=O", "PAMPA (log10 cm/s)": "-5.71"}
{"smiles": "CC(C)C[C@H]1NC(=O)[C@@H]2CCCN2C(=O)[C@@H](CC(C)C)NC(=O)CN(Cc2ccccc2)C(=O)[C@H](C)NC(=O)[C@H](Cc2ccccc2)NC1=O", "PAMPA (log10 cm/s)": "-6.43"}
{"smiles": "CC(C)C[C@@H]1NC(=O)[C@@H](CC(C)C)N(C)C(=O)[C@H](C)NC(=O)[C@H](Cc2ccccc2)NC(=O)[C@@H](CC(C)C)N(C)C(=O)[C@@H]2CCCN2C1=O", "PAMPA (log10 cm/s)": "-4.90"}
{"smiles": "CC(C)C[C@@H]1C(=O)N(C)[C@@H](CC(C)C)C(=O)N2CCC[C@H]2C(=O)N[C@H](CC(C)C)C(=O)N[C@@H](Cc2ccccc2)C(=O)N[C@@H](C)C(=O)N1C", "PAMPA (log10 cm/s)": "-5.61"}

The last 4 entries again:

{"smiles": "CC(C)C[C@@H]1NC(=O)[C@@H]2CCCN2C(=O)[C@@H](CC(C)C)NC(=O)[C@@H](CC(C)C)N(C)C(=O)C[C@H](Cc2ccccc2)NC(=O)[C@H]2CCCN2C(=O)[C@H](Cc2ccccc2)NC1=O", "PAMPA (log10 cm/s)": "-5.71"}
{"smiles": "CC(C)C[C@H]1NC(=O)[C@@H]2CCCN2C(=O)[C@@H](CC(C)C)NC(=O)CN(Cc2ccccc2)C(=O)[C@H](C)NC(=O)[C@H](Cc2ccccc2)NC1=O", "PAMPA (log10 cm/s)": "-6.43"}
{"smiles": "CC(C)C[C@@H]1NC(=O)[C@@H](CC(C)C)N(C)C(=O)[C@H](C)NC(=O)[C@H](Cc2ccccc2)NC(=O)[C@@H](CC(C)C)N(C)C(=O)[C@@H]2CCCN2C1=O", "PAMPA (log10 cm/s)": "-4.90"}
{"smiles": "CC(C)C[C@@H]1C(=O)N(C)[C@@H](CC(C)C)C(=O)N2CCC[C@H]2C(=O)N[C@H](CC(C)C)C(=O)N[C@@H](Cc2ccccc2)C(=O)N[C@@H](C)C(=O)N1C", "PAMPA (log10 cm/s)": "-5.61"}

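Conditions beyond the assay type are not listed; see the original paper. The list need not hold all peptides of the study. Peptides that the database sets to -10, its floor, are left out.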